Only a part is listed here, and it is no random draw. Activity calls are given as the source filed them. The call rests on the fitted dose curve; in most records, active means well fitted activation curve with a large enough effect; inconclusive means small, poorly fitted or top-dose-only effect; inactive means no such curve, though single readings can be large or run the other way.
Test: qHTS Assay to Identify Small Molecule Activators of BRCA1 Expression; further: nearly all actives have a fitted effect of over 80% in size
Settings: MCF7-BRCA1-FFLuc reporter, luminescence, 48 h, scaled: vehicle 0%, 10 µM genistein 100%; at 46.1 µM (top of the series) unless noted
For `CC(C)C(=O)NC(Sc1ccccc1)C(Cl)(Cl)Cl` (stereo unspecified), the activation was inactive: 12.9%. In the case of `C[C@H]1OP(=O)(Oc2ccccc2)[C@H](O)[C@H](O)[C@H]1N=[N+]=[N-]` (stereo partly specified), the activation was inactive: -3.86%. In the case of `O=P(Nc1nc2ccccc2s1)(c1ccccc1)c1ccccc1`, the activation was inactive: 0%. For `COc1ccc(N)c([N+](=O)[O-])c1[N+](=O)[O-]`, the activation was inactive: -16.3%. In the case of `Nc1ccc(CCCCOc2ccccc2)cc1`, the activation was inactive: 65.3%. For `CN(C)C1(CNC(=O)c2ccc(Cl)c(S(N)(=O)=O)c2)CCCCC1`, the activation was inactive: -7.48%. In the case of `O=P(Nc1ccccn1)(c1ccc(Br)cc1)c1ccc(Br)cc1`, the activation was inactive: -3.99%. For `C(Cc1nn[nH]n1)Cc1nn[nH]n1`, the activation was inactive: -7.11%. In the case of `Nc1ccc([As](=O)(O)c2ccc([N+](=O)[O-])cc2)cc1`, the activation was inactive: 18.4%. With `O=C(OC1CN2CCC1CC2)c1cccc(Cl)c1` (stereo unspecified) the activation was inactive: -0.966%. With `CC(=O)NC(SC(=S)N(C)C)C(Cl)(Cl)Cl` (stereo unspecified) the activation was inactive: -15.3%. For `O=[N+]([O-])c1ncn(CCn2cnc([N+](=O)[O-])n2)n1`, the activation was inactive: 0.0766%. In the case of `O=[N+]([O-])c1ccc(O)c(/C=N/Nc2ccc([N+](=O)[O-])cc2[N+](=O)[O-])c1`, the activation was inactive: -14.9%. In the case of `O=[As](O)(c1ccccc1)c1ccc(O)cc1`, the activation was inactive: 0%. With `O=P(/N=c1/nc(-c2ccccc2)n(-c2ccccc2)s1)(Nc1ccccc1)Nc1ccccc1` the activation was inactive: 10.3%. For `O=C(Nc1cc([As](=O)(O)O)ccc1O)c1ccccc1`, the activation was inactive: 33.5%. In the case of `O=P1(N(CCCl)CCCl)OCCCS1` (stereo unspecified), the activation was inactive: 3.12%. For `COC(=O)C1(C)COP(=O)(Nc2ccccc2)OC1` (stereo unspecified), the activation was inactive: -2.91%. For `O=[N+]([O-])c1cccc(NC2=NCC(CBr)S2)c1` (stereo unspecified), the activation was inactive: -2.18%. For `O=C(O)CNc1ccc([As](=O)(O)O)cc1`, the activation was inactive: 1.84%. For `CC(C)(C)C(=O)NC(Sc1ccncn1)C(Cl)(Cl)Cl` (stereo unspecified), the activation was inactive: 8.57%. With `O=[N+]([O-])c1ncn(CCn2ncnc2[N+](=O)[O-])n1` the activation was inactive: -3.95%. For `CC(=O)N1C2C3N(C(C)=O)C1C1N(C(C)=O)C(C(N1C(C)=O)N3C(C)=O)N2C(C)=O`, the activation was inactive: -2.03%. With `O=[N+]([O-])c1cccc2n[nH]nc12` the activation was inactive: -10.1%. With `O=[N+]([O-])c1cc([N+](=O)[O-])c(CCNc2ccccc2)c([N+](=O)[O-])c1` the activation was inactive: -63.7%. For `CCc1nc2c(n1)c1c(non1O)c1c2no[n+]1[O-]`, the activation was inactive: -96.8%. With `Cc1ccc(NP(=O)(Oc2ccccc2)Oc2ccccc2)nc1` the activation was inactive: 5.95%. For `COc1ccc(C2=NCC(CBr)S2)cc1` (stereo unspecified), the activation was inactive: -5.63%. For `CN(C)C(=O)OCCc1n(C)cc[n+]1C`, the activation was inactive: 11.1%. In the case of `CC(C)c1nc(Nc2ccccc2)n(P(=O)(N(C)C)N(C)C)n1`, the activation was inactive: 0.742%. For `CC(C)=N/N=C(\N)N[N+](=O)[O-]`, the activation was inactive: 0.737%. For `CC1CCN(C(=O)Oc2c(Cl)cc(Cl)c3cccnc23)CC1`, the activation was inactive: 31.4%. In the case of `c1cc(-c2nn[nH]n2)ccc1-c1nn[nH]n1`, the activation was inactive: 9.47%. In the case of `Nc1ccc([As](=O)(O)c2ccc(N)cc2)cc1`, the activation was inactive: -3.89%. With `CCN(/C(=N/P(=O)(N1CCOCC1)N1CCOCC1)N1CCOCC1)c1ccc(OC)cc1` the activation was inactive: 0.726%. With `Cc1ccc(OP(=O)(Nc2nccs2)Oc2ccc(C)cc2)cc1` the activation was inactive: -3.1%. For `COc1ccccc1OP(=O)(Nc1ccc(C)cn1)Oc1ccccc1OC`, the activation was inactive: -6.67%. In the case of `CN1CCCC(OC(=O)C(c2ccccc2)c2ccccc2)C1` (stereo unspecified), the activation was inactive: -25.8%. For `Clc1ccc(Cl)c(NC2=NCC(CBr)S2)c1` (stereo unspecified), the activation was inactive: -15.1%. With `NC(=O)c1cc([N+](=O)[O-])cc([N+](=O)[O-])c1N` the activation was inactive: -9.12%. For `O=[N+]([O-])c1cc2c(cc1[N+](=O)[O-])OCO2`, the activation was inactive: -44.9%. For `Cc1ccc(N/C(=N/P(=O)(N2CCOCC2)N2CCOCC2)N2CCOCC2)cc1`, the activation was inactive: 13.1%. For `CN(C(=O)Cc1ccc(Cl)c(Cl)c1)[C@H]1CCCC[C@H]1N1CCCC1`, the activation was inactive: -3.21%. For `O=[N+]([O-])C1C(O)C(O)C([N+](=O)[O-])C(O)C1O` (stereo unspecified), the activation was inactive: 3.46%. For `Nc1cc(N)c2nonc2c1[N+](=O)[O-]`, the activation was inactive: -1.41%. In the case of `CC(C)CC(=O)NC(Sc1ccc(Cl)cc1)C(Cl)(Cl)Cl` (stereo unspecified), the activation was inactive: -20.7%. For `O=C(NC(Sc1ccncn1)C(Cl)(Cl)Cl)c1ccccc1` (stereo unspecified), the activation was inactive: -7.71%. For `Oc1ccccc1CNc1ccccn1`, the activation was inactive: 44.4%. In the case of `CN(C(=O)Cc1ccc(Cl)c(Cl)c1)[C@H]1CCCC[C@@H]1N1CCCC1`, the activation was inactive: 0%. With `Cc1ccc(NP(=O)(Oc2ccccc2F)Oc2ccccc2F)nc1` the activation was inactive: 13.6%. For `Cc1cc(SC(NC(=O)c2ccc(F)cc2)C(Cl)(Cl)Cl)ncn1` (stereo unspecified), the activation was inactive: -17.7%. In the case of `CCOP(=O)(Nc1ccccc1)OCC`, the activation was inactive: 9.92%. For `CCCC1OP(N)(=O)OCC1CC` (stereo unspecified), the activation was inactive: -0.238%. In the case of `CC(=O)Nc1ccc([As](=O)(O)O)cc1`, the activation was inactive: -6.7%. With `O=C(O)c1ccccc1[As](=O)(O)O` the activation was inactive: -12.3%. In the case of `O=P(Nc1nc2ccc(Cl)cc2s1)(c1ccccc1)c1ccccc1`, the activation was inactive: -50%. For `CN(C)P(=O)(N(C)C)n1c(Nc2ccccc2)nnc1-c1ccccc1`, the activation was inactive: 10.1%. With `CCN(N=Nc1nonc1N)c1nonc1N` the activation was inactive: 3.64%. For `Nc1cccc2ccc([As](=O)(O)O)cc12`, the activation was inactive: -1.49%. In the case of `Cc1ccc2nc3c(c(C)c2c1)CC(C(Cl)Cl)S3` (stereo unspecified), the activation was inactive: 15.3%. For `ClCCN(CCCl)c1ccc(CC2C=CC=C2)cc1`, the activation was inactive: -7.48%. With `Cc1ccc(OP(=O)(Nc2ccc([N+](=O)[O-])cn2)Oc2ccc(C)cc2)cc1` the activation was inactive: 1.11%. In the case of `[N-]=[N+]=NC1CCCCC1NC(=O)c1cc([N+](=O)[O-])cc([N+](=O)[O-])c1` (stereo unspecified), the activation was inactive: 0%. In the case of `O=[N+]([O-])c1ccc(-c2cc([N+](=O)[O-])c(O)c([N+](=O)[O-])c2)cc1`, the activation was inactive: -15%. With `COc1cc(C(=O)NCC2(N3CCOCC3)CCCCC2)ccc1OCC(C)C` the activation was inactive: 9.72%. For `C[As](=O)(O)c1cccc(C(=O)O)c1`, the activation was inactive: -5.55%. In the case of `O=[As](O)(c1ccc(O)cc1)c1ccccc1O`, the activation was inactive: 0%. With `O=[N+]([O-])c1cc([N+](=O)[O-])c(-c2ccn[nH]2)s1` the activation was inactive: -95.1%. In the case of `CC(C)NC(=O)NP(=O)(Oc1ccccc1)Oc1ccccc1`, the activation was inactive: 3.86%. For `CCN(CC)C(=S)SC(NC=O)C(Cl)(Cl)Cl` (stereo unspecified), the activation was inactive: -32.8%. In the case of `O=C(OC1CN2CCC1CC2)c1cccc2[nH]cnc12` (stereo unspecified), the activation was inactive: -4.41%. In the case of `COC(=O)C1(C)COP(=O)(N2CCCCCC2)OC1` (stereo unspecified), the activation was inactive: -0.0497%. For `CC(C)c1ccc(OP(=O)(Nc2ccccn2)Oc2ccccc2F)cc1` (stereo unspecified), the activation was inactive: 22.2%. For `ClCCSc1nnc(-c2cccnc2)o1`, the activation was inactive: 64.9%. For `O=Cc1ccc(NCCCl)cc1`, the activation was inactive: -4.57%. For `COc1cc(I)ccc1[As](=O)(O)O`, the activation was inactive: 30.4%. For `COc1ccc2nc(NP(=O)(c3ccccc3)c3ccccc3)sc2c1`, the activation was inactive: -35.6%. With `O=P1(N(CCCl)CCCl)OCCCN1CCCl` (stereo unspecified) the activation was inactive: 15.1%. In the case of `O=P1(N(CCCl)CCCl)Nc2ccccc2N1`, the activation was inactive: 3.71%. In the case of `Cc1cc(=O)[nH]c(N[N+](=O)[O-])n1`, the activation was inactive: -0.376%. For `O=C(OC1CN2CCC1CC2)C12CC3CC(CC(C3)C1)C2` (stereo unspecified), the activation was inactive: -1.18%. With `Cc1c2c(nc3ccccc13)SC(C(Cl)Cl)C2` (stereo unspecified) the activation was inactive: 22.6%. For `COc1ccc(N/C(=N/P(=O)(N2CCOCC2)N2CCOCC2)N2CCOCC2)cc1`, the activation was inactive: -14.4%. In the case of `O=[N+]([O-])c1cc(Oc2ccc([N+](=O)[O-])cc2C(F)(F)F)cc([N+](=O)[O-])c1`, the activation was inactive: -49.4%. For `O=C(Nc1ccncc1[N+](=O)[O-])c1ccc([N+](=O)[O-])cc1[N+](=O)[O-]`, the activation was inactive: -21.6%. For `O=C(COc1ccccc1)OC1CN2CCC1CC2` (stereo unspecified), the activation was inactive: 16.8%. In the case of `O=C(O)C(=O)c1ccc(N(CCCl)CCCl)cc1`, the activation was inactive: 9.08%. For `COC(=O)C1(C)COP(=O)(N2CCCC2)OC1` (stereo unspecified), the activation was inactive: 14.4%. In the case of `COP1(=S)c2c(C)nn(CCC#N)c2N=C(c2ccc(F)cc2)N1C` (stereo unspecified), the activation was inactive: 3.77%. With `CCOP(=O)(Nc1cccc2cccnc12)OCC` the activation was inactive: 11.5%. With `CCC(C)N(CC(C)C)C(=S)SC(NC(C)=O)C(Cl)(Cl)Cl` (stereo unspecified) the activation was inactive: -44.5%. With `CCOC(=O)c1ccc(NC(=O)C(C)(CCl)SC)cc1` (stereo unspecified) the activation was inactive: 0%. With `CSc1ccc(Nc2c([N+](=O)[O-])cc([N+](=O)[O-])cc2[N+](=O)[O-])cc1` the activation was inactive: -60.6%. For `O=C(OC1CN2CCC1CC2)c1cccc([N+](=O)[O-])c1` (stereo unspecified), the activation was inactive: -1.37%. With `Cc1cc(SC(NC(=O)c2ccccc2)C(Cl)(Cl)Cl)nc(C(C)C)n1` (stereo unspecified) the activation was inactive: -20.5%. With `CCCCOc1ccc(C(=O)NCC2(N3CCCCC3)CCCCC2)cc1OC` the activation was inactive: -72.1%. With `COP(=O)(OC)N1CC1c1ccccc1` (stereo unspecified) the activation was inactive: 7.79%. In the case of `CC1CCNP(=O)(N(CCCl)CCCl)O1` (stereo unspecified), the activation was inactive: 0.93%. For `O=C(O)C(O)c1ccc(N(CCCl)CCCl)cc1` (stereo unspecified), the activation was inactive: 2.98%. For `CCOC(=O)Nc1ccc([As](=O)(O)O)c(O)c1`, the activation was inactive: -0.99%. With `O=[N+]([O-])c1ccc(Nc2ccc(Oc3ccc([N+](=O)[O-])cc3[N+](=O)[O-])cc2)c([N+](=O)[O-])c1` the activation was inactive: -6.63%.

Reference: PubChem BioAssay AID624202 (National Center for Advancing Translational Sciences (NCATS), 2012)
